Results reported in patent publication EP2289528A1, “Novel nutraceutical compositions containing black pepper or its constituents improving mental performance” (DSM IP Assets B.V., priority 2009, dated 2011).

Test system: GluR1
Experiment: Hippocampal slice cultures, immunohistochemistry of synaptic marker GluR1
Format: cell-based, Wistar rats
Settings: relative activation vs sister cultures treated with buffer; 15 min treatment after 48 h in culture
Experimental: Seven-day-old Wistar rats were decapitated using a guillotine. […] Transversal hippocampal slices (400 µm) were prepared using a vibrating blade microtome (VT1200S; Leica Microsystems (Schweiz) AG, Heerbrugg, Switzerland) in the same buffer. Hippocampal slices were individually placed on a membrane insert (Millicell Culture Plate Inserts, 0.4 µm) and cultivated at 35 °C, 5% CO2, 95% humidity in a medium containing a 1:1 mixture of BME and MEM (both from Invitrogen) containing 25% heat-inactivated horse serum, 1x GlutaMAX, 1x Penicillin/Streptomycin, 0.6% glucose and 1mM Kynurenic acid (Stoppini, Buchs and Muller (1991), J. Neurosci. Methods, 37(2), 173-82). After 48 h in culture, synaptic NMDA receptors were activated by addition of black pepper extract or its constituents for 15 min in 140 mM NaCl, 5 mM KCl, 1.3 mM CaCl2, 25 mM HEPES (pH 7.3), 33 mM D-glucose and 0.02 mM bicuculline methiodide. […] An additional positive control comprised the addition of 200 µM glycine to sister cultures. After the treatments, sections were washed and fixed for immunohistochemistry. Markers of enhanced synaptic activity, normally associated with long-term potentiation, representing an ex vivo model of learning and memory were quantitated (see Table 2, below). Table 2. […] The activation of any of these markers (or a combination thereof) is observed in classical LTP experiments. TABLE 2 […]

NCC(=O)O [Glycine, reference compound]
GluR1: 123-298%
